In test [1] the target is P2X purinoceptor 7 (Homo sapiens, UniProt Q99572). The test can be described thus: Radioligand Binding Assay. The method, then: (§1) human or rat P2X7-1321N1 cells were collected and frozen @−80° C. On the day of the experiment, cell membrane preparations were made according to standard published methods. The total assay volume was 100 μl:10 μl compound (10×)+(b) 40 μl tracer (2.5×)+50 μl membrane (2×). The tracer used for the assay was tritiated A-804598. The compound can be prepared as described in the literature. […] The assay was terminated by filtration (GF/B filters pre-soaked with 0.3% PEI) and washed with washing buffer (Tris-HCl 50 mM). The IC50 generated in the binding assay was corrected for tracer concentration and affinity of the tracer to derive at the affinity (Ki) of the test compounds.

By UniProt entry, the sequences of proteins in these tests, tags left out. Where a name states a change or a piece, a line headed by the entry shows the natural chain unless it says otherwise.
UniProt Q99572: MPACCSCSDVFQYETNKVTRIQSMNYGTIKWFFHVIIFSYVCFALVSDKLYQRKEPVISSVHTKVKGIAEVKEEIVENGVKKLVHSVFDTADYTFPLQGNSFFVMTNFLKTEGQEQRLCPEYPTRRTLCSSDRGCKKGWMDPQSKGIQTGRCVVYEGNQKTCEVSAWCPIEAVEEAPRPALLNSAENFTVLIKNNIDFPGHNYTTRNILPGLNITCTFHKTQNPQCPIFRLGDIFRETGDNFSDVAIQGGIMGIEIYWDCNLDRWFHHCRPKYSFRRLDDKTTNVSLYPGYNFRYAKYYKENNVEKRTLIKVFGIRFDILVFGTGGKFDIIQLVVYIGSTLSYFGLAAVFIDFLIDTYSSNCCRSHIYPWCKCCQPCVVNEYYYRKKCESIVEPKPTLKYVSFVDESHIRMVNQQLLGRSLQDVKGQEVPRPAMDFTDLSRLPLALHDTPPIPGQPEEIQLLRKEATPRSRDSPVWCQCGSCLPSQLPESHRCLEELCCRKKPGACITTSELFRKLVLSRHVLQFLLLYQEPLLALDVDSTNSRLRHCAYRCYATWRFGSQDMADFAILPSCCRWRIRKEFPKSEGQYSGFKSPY

The target in test [2] is T1, P2X purinoceptor 7 (Rattus norvegicus, UniProt Q64663).
T1 sequence (Q64663 whole entry): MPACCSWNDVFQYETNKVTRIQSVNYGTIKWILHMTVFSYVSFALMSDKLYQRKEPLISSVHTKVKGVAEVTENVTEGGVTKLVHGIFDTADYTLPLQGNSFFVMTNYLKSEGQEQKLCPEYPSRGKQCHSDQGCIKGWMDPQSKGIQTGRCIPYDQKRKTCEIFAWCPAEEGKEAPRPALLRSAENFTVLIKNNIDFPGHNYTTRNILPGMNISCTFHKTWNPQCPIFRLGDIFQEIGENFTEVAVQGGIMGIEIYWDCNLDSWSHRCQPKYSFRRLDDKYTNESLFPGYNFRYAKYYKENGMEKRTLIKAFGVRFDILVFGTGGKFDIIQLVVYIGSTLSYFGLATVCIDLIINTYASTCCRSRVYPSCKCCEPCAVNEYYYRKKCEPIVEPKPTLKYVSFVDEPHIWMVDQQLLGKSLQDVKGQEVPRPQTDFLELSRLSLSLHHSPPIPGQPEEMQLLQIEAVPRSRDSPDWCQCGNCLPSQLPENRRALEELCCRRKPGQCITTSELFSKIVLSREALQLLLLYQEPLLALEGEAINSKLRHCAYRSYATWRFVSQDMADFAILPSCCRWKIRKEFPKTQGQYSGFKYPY
The test can be described thus: Radioligand Binding Assay. The method, then:
as §1

Experimental findings from BindingDB's records for patent US9540388 (Janssen Pharmaceutica NV, 2017) are described below.

The molecule `O=C(c1ccnc(C(F)(F)F)c1Cl)N1[C@@H]2CCC[C@H]1c1nnc(-c3cccs3)n1C2` (single isomer, unassigned) [US9540388, 36] yielded an IC50 at P2X purinoceptor 7 [1] of 11 nM. For the molecule `O=C(c1cccc(C(F)(F)F)c1Cl)N1[C@@H]2CCC[C@H]1c1nnc(-c3ccc(F)cn3)n1C2` (single isomer, unassigned) [US9540388, 12], at P2X purinoceptor 7 [2], the IC50 amounted to 14800 nM. As to `O=C(c1cccc(C(F)(F)F)c1Cl)N1C2CCCC1c1nnc(-c3ncccn3)n1C2` (stereo not drawn) [US9540388, 1], the IC50 on P2X purinoceptor 7 [1] was 50 nM.
